Values quoted from earlier work in patent US20240315956A1, “METHOD OF PRODUCTION OF THE COMPOSITION OF CYCLOOXYGENASE-2 (COX-2) INHIBITORS” (US NANO FOOD & DRUG INC, priority 2021, published 2024).

Structure (SMILES): Cc1ccc(-c2cc(C(F)(F)F)nn2-c2ccc(S(N)(=O)=O)cc2)cc1 [Celecoxib]
- log P: 3.0
